Test results published in PubChem BioAssay AID1216 (Sanford-Burnham Center for Chemical Genomics, 2008).
The entries are a selection whose mix differs from that of the whole data set. Active and inactive are the calls of the source.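 The calls were made as follows: active = activation factor of 2 or more at 20 µM; inactive = the rest.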

The chains behind the UniProt entries cited, without tags or fusion partners.
UniProt P34949, whole entry: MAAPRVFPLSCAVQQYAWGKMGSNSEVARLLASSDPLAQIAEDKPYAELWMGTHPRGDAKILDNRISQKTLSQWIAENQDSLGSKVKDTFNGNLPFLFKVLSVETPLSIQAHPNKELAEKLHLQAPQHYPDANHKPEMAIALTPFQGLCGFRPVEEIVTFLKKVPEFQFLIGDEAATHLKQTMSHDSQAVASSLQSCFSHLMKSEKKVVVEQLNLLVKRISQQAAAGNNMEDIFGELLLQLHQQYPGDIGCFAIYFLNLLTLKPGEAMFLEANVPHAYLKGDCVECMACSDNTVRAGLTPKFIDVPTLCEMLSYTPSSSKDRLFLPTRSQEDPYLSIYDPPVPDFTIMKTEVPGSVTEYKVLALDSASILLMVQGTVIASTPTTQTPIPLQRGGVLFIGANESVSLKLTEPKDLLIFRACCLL

The molecules below were run against Mannose-6-phosphate isomerase (Homo sapiens) (UniProt P34949) (assay: human PMI activators, high substrate, primary screen, biochemical, fluorescence intensity, near-saturating mannose 6-phosphate (AID 1216)). Conditions: coupled PMI enzyme assay, resazurin fluorescence, 20 min; at 20 µM; hits give high values; 1 = untreated enzyme, 0 = substrate-free blank.
Summary of the method: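 Test system: human phosphomannose isomerase with PGI, G6PDH, diaphorase coupling enzymes; amount: 15 ng/mL PMI; incubation: enzyme reaction with compound 20 min at room temperature; technique: resorufin fluorescence (Ex 544/Em 590 nm) from resazurin via diaphorase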

| SMILES | activation factor |
| --- | --- |
| COc1ccc(C(=O)NCC2(N3CCOCC3)CCCCC2)cc1OC | inactive: 1.1 |
| O=C(OC1CN2CCC1CC2)C1c2ccccc2C=Cc2ccccc21 (stereo not given) | inactive: 1 |
| N/C(=N\O)c1c(N)no[n+]1[O-] | inactive: 1.1 |
| N#Cc1ccc(C(=O)NCC2(N3CCCCC3)CCCCC2)cc1 | inactive: 1.1 |
| c1ccc(CN2CCC(Nc3ccccc3)CC2)cc1 | inactive: 0.8 |
| Fc1ccccc1NC1CCN(Cc2ccccc2)CC1 | inactive: 1.1 |
| CN(C)c1ccc(C(=O)NCC2(N3CCCCC3)CCCCC2)cc1 | inactive: 1 |
| CCN1CCC(Nc2cccc(F)c2)CC1 | inactive: 1 |
| CC(C)(C)OC(=O)N1CCC(Nc2ccccc2)CC1 | inactive: 0.9 |
| CCOc1ncccc1C(=O)NCC1(N2CCOCC2)CCCCC1 | inactive: 1 |
| COc1cc(OC)cc(C(=O)NCC2(N3CCOCC3)CCCCC2)c1 | inactive: 1.1 |
| CCC(CO)(C(=O)OC1CN2CCC1CC2)c1ccccc1 (stereo not given) | inactive: 1 |
| COc1ccc(C(=O)NCC2(N3CCCCC3)CCCCC2)c(OC)c1OC | inactive: 1.1 |
| O=C(OC1CN2CCC1CC2)C1c2ccccc2Oc2ccccc21 (stereo not given) | inactive: 0.9 |
| CCOC(=O)N1CCC(Nc2ccc(OC)cc2)CC1 | inactive: 0.9 |
| O=C(NCC1(N2CCOCC2)CCCCC1)c1cc2ccccc2o1 | inactive: 1 |
| COc1ccc(NC2CCN(CCc3ccccc3)CC2)c(OC)c1 | inactive: 0.5 |
| N#CC1(Nc2ccccc2)CCN(CCc2ccccc2)CC1 | inactive: 1 |
| O=C(NCC1(N2CCCCC2)CCCCC1)c1cccc([N+](=O)[O-])c1 | inactive: 1.1 |
| O=C(NCC1(N2CCOCC2)CCCCC1)c1cc(=O)[nH]c2ccccc12 | inactive: 1 |
| COc1ccc(NC2CCN(C(=O)OC(C)(C)C)CC2)cc1 | inactive: 0.8 |
| CN1CCN(CCOC(=O)C(O)(c2ccccc2)c2ccccc2)CC1 | inactive: 1.2 |
| CC(C)c1ccc(NC2CCN(C(=O)OC(C)(C)C)CC2)cc1 | inactive: 0.7 |
| CN(C)c1cccc(C(=O)NCC2(N3CCCCC3)CCCCC2)c1 | inactive: 0.9 |
| COc1ccc(CN(CCCl)CCCl)cc1Cl | inactive: 0.7 |
